Earlier results as cited in publication PMC8341946, “Wheat pathogen Zymoseptoria tritici N-myristoyltransferase inhibitors: on-target antifungal activity and an unusual metabolic defense mechanism” (RSC Chemical Biology, 2020).

Target: HsNMT1
Conditions: read-out: HsNMT1 IC50 (µM), value marked (Ki); Table S1, cells marked (Ki); ref SI refs 3, 5, 6 as given with each inhibitor name; cited from earlier work

SMILES: c1cnc(OC2CCNCC2)c(-c2nc(Cc3cccc4ncccc34)no2)c1
- Ki: 0.024 µM
